Reference: US20230027739A1, “ANTIGEN-BINDING AND ANTIGEN D[…]” (Entrada Therapeutics, Inc., priority 2021, published 2023)

Target: GST-KRas^G12D(1-188)-GDP (human)

B1: K19-Cys-EEV12 (designed binder)
chain: MHHHHHHENLYFQGDLGKKLLEAARAGQDDEVRILMANGADVNASDRWGWTPLHLAAWWGHLEIVEVLLKRGADVSAADLHGQSPLHLAAMVGHLEIVEVLLKYGADVNAKDTMGATPLHLAARSGHLEIVEELLKNGADMNAQDKFGKTTFDISTDNGNEDLAEILQKLC
modifications: not checked
B1 showed a Kd of 3.15 nM.
